Laboratory results from PubChem BioAssay AID463141 (The Scripps Research Institute Molecular Screening Center, 2010).
The entries are a selection whose mix differs from that of the whole data set. Some tests of the compounds listed are not included; inactive here does not mean inactive elsewhere. Calls of active or inactive are those of the source.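 How the source made its calls: active means activation above the mean of all tested compounds plus 3 SD (cut at about 21% in these data); inactive means the rest.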

The chains behind the UniProt entries cited, without tags or fusion partners.
UniProt P42574, whole entry D9A/D28A/D175A: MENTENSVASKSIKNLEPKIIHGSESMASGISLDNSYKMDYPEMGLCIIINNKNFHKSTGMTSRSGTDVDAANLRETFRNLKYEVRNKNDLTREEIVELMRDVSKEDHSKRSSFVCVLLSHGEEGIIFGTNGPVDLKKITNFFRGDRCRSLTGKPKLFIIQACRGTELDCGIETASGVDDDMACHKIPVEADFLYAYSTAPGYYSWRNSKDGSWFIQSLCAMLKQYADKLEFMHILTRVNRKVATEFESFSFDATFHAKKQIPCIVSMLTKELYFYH

Molecular target: Caspase-3 (Homo sapiens) (UniProt P42574)
Assay: procaspase-3 enzyme activation – biochemical, absorbance, PC-3 D3A mutant, single concentration, primary screen (AID 463141);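 further: 0% = DMSO alone and 100% = DMSO wells spiked with extra 5 µM PC-3 D3A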
Conditions: recombinant procaspase-3 D3A, Ac-DEVD-pNA absorbance 405 nm; at 8.5 µM; hits give high values

SMILES | activation
C=CCN1CCN(CCOC(=O)C(O)(c2ccccc2)c2ccccc2)CC1 | inactive: -0.16%
O=C(NCC1(N2CCCCC2)CCCCC1)c1cc(F)c(F)cc1Cl | inactive: -3.52%
Cc1cc(C(=O)NCC2(N3CCCCC3)CCCCC2)ccc1[N+](=O)[O-] | inactive: 0.63%
CCN1CCCC(OC(=O)C2(O)c3ccccc3C=Cc3ccccc32)C1 (centres undefined) | inactive: 7.97%
O=C(NCC1(N2CCCCC2)CCCCC1)c1cccc(Br)c1 | inactive: -2.32%
COc1ccc(C(=O)NCC2(N(C)C)CCCCC2)cc1 | inactive: 2.1%
Cc1ccccc1C(=O)NCC1(N2CCCCC2)CCCCC1 | inactive: 8.84%
CN(C)C1CCCC1OC(=O)C(O)(c1ccccc1)c1ccccc1 (centres undefined) | inactive: -0.53%
CN(C)c1ccc(C(=O)NCC2(N(C)C)CCCCC2)cc1 | inactive: -3.47%
CC(C)N1C(=O)CC2(CCN(CCOC(=O)C(O)(c3ccccc3)c3ccccc3)CC2)C1=O | inactive: -12.9%
CCN(CC)CC(C)C(C)OC(=O)C(O)(c1ccccc1)c1ccccc1 (centres undefined) | inactive: 1.99%
COc1cc(SC)ccc1C(=O)NCC1(N(C)C)CCCCC1 | inactive: 2.32%
Cc1ccc(C(=O)NCC2(N3CCCCC3)CCCCC2)cc1 | inactive: 0.03%
O=C(NCC1(N2CCCCC2)CCCCC1)c1cc([N+](=O)[O-])ccc1Cl | inactive: 7.37%
CN1[C@@H]2CC[C@H]1CC(OC(=O)C(O)(c1ccccc1)c1ccccc1)C2 (some centres undefined) | inactive: -6.07%
COc1ccc(Br)c(C(=O)NCC2(N3CCCCC3)CCCCC2)c1 | inactive: 3.73%
CN(C)c1cccc(C(=O)NCC2(N(C)C)CCCCC2)c1 | inactive: 4.41%
CC(C)Oc1ccc(C(=O)NCC2(N(C)C)CCCCC2)cc1 | inactive: 3.94%
O=C(OC1CN2CCC1CC2)C(CO)(c1ccccc1)c1ccccc1 (centres undefined) | inactive: 4.21%
COc1cccc(C(=O)NCC2(N3CCCCC3)CCCCC2)c1 | inactive: -1.12%
COc1ccc(Cl)cc1C(=O)NCC1(N(C)C)CCCCC1 | inactive: -1.12%
O=C(NCC1(N2CCCCC2)CCCCC1)c1cccc(Cl)c1 | inactive: 5.42%
CN(C)C1(CNC(=O)c2ccc(Br)cc2)CCCCC1 | inactive: 5.8%
COc1cc(C(=O)NCC2(N(C)C)CCCCC2)c([N+](=O)[O-])cc1OC | inactive: -6.07%
